# AlphaSeq binding of Ab-14 light chain variants to a spike HR2 peptide

Values reported by Li et al. 2023, doi:10.1038/s41467-023-39022-2 (FLAb copy).

Binding partner: SARS-CoV-2 spike HR2 peptide, sequence PDVDLGDISGINAS.

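The parent was found by panning a naive human phage display library on the peptide. This is the validation round: designs drawn from the data on random variants, tested in the same kind of assay. Their group label is 14L_Ctrl (Ctrl: baseline library sampled from a position-specific scoring matrix, with some repeated check sequences). The scFvs were displayed on barcoded MATa yeast, the peptide on MATalpha yeast. After mating in shaken culture at 30 °C for 16 h, diploids were selected and their barcode pairs sequenced. Scores were corrected for input abundance and mapped to Kd with protein pairs of known affinity run in the same pool. Mating was done six times.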

Each scFv is VH, the linker GGGGSGGGGSGGGGS, VL, as in the parent Ab-14, and differs from it in the CDRs of the light chain only.
VH: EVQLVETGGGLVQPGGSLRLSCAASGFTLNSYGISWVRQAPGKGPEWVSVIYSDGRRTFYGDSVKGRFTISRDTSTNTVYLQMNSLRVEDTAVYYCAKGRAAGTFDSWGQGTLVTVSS
VL: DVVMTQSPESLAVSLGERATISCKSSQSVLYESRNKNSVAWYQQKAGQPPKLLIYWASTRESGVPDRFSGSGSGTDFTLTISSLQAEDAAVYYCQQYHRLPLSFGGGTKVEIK

Substitutions are numbered in sequence along the VL above, starting at 1 (not Kabat).
Numbers give log10(Kd / nM), so 0 is 1 nM and 3 is 1 µM. Smaller is tighter.
A mean of the replicates is given; it leaves out those without a signal.
An entry "ND" has no value in the source: the pair was not observed among the diploids in that replicate. This suggests poor binding but is not conclusive.
A sequence measured in both rounds can read differently, since the two assays cover different ranges.
The authors averaged sequences with at least three values out of six and counted those with two or fewer as poor binders.
Nonspecific signal, from three strains lacking the peptide, appeared in 4% of pairings of all light chain designs, centred on 2.64 (5% of these signals below 1.59); values are not corrected for it. Also given: how often the same scFv was detected with the empty control strains, with their mean in brackets.

| # | changes | log10 Kd (nM) by replicate | mean, log10 nM | empty controls |
|---|---|---|---|---|
| 1 | V29G R34T | 1.07 1.76 ND 2.59 2.24 2.42 | 2.01 | 2 of 18 (1.96) |
| 2 | A57K E61F Y97A | ND ND ND ND ND ND | ND | 0 of 18 |
| 3 | W56K E61N | 3.37 1.92 ND 1.05 2.75 1.71 | 2.16 | 0 of 18 |
| 4 | S25W Q27C T59L | 1.83 1.67 ND 1.08 1.59 1.43 | 1.52 | 0 of 18 |
| 5 | L30M W56Y | 0.58 0.83 1.11 0.87 1.54 0.92 | 0.98 | 0 of 18 |
| 6 | R34H L102N | ND 1.55 1.45 2.16 1.02 2.21 | 1.68 | 0 of 18 |
| 7 | E61G S62T | 2.19 2.20 1.99 3.27 3.21 ND | 2.57 | 0 of 18 |
| 8 | S26P L30Y W56H | ND ND ND ND 2.32 2.01 | 2.17 | 0 of 18 |
| 9 | S28I R34I | 0.34 0.92 1.38 1.57 ND 1.74 | 1.19 | 1 of 18 (1.07) |
| 10 | S25I K36N T59I S62D | 1.09 0.57 0.39 0.80 0.86 1.06 | 0.79 | 3 of 18 (1.85) |
| 11 | S26Y Y31F N35P S62D | ND ND ND 3.11 1.75 ND | 2.43 | 1 of 18 (2.32) |
| 12 | S25E E32L W56A T59C Q96A | ND ND ND 2.52 2.63 ND | 2.57 | 0 of 18 |
| 13 | S62F H98N | ND 2.34 1.47 ND 2.30 ND | 2.04 | 0 of 18 |
| 14 | V29S E61G | 1.37 2.32 1.51 ND ND 2.55 | 1.94 | 1 of 18 (2.14) |
| 15 | Y31E W56A T59E | 0.72 0.38 0.95 0.28 0.45 0.72 | 0.58 | 3 of 18 (2.55) |
| 16 | S25M Y31D W56A | 0.24 0.30 0.37 0.21 0.55 0.90 | 0.43 | 0 of 18 |
| 17 | E32Q V39H W56A | ND ND ND ND ND ND | ND | 0 of 18 |
| 18 | S26P Q27Y N35Y W56T | ND 2.78 ND ND ND ND | 2.78 | 0 of 18 |
| 19 | S25C L30K S33H W56A E61S | 2.25 ND 1.93 2.48 3.09 ND | 2.44 | 0 of 18 |
| 20 | Y31M R34E S62E | 1.31 1.32 1.28 0.96 1.01 0.90 | 1.13 | 0 of 18 |
| 21 | S25R W56E | 0.48 0.21 0.22 0.26 0.32 0.59 | 0.35 | 2 of 18 (2.82) |
| 22 | E61Q Y97Q | ND 1.73 ND 2.08 ND 1.87 | 1.89 | 0 of 18 |
| 23 | S28Y E32P S33Q | ND ND ND ND ND ND | ND | 0 of 18 |
| 24 | R34T V39I W56A | ND ND 2.42 ND ND 3.33 | 2.87 | 0 of 18 |
| 25 | K24D Q27N L102V | 3.21 ND ND ND 2.36 ND | 2.78 | 0 of 18 |
| 26 | S25L A57G | 0.36 0.30 0.11 -0.11 -0.19 0.20 | 0.11 | 2 of 18 (2.35) |
| 27 | Y31G S33D S38N E61V | 0.47 0.68 0.54 0.49 0.52 0.94 | 0.61 | 2 of 18 (2.54) |
| 28 | Y31Q Q96I | 1.25 0.58 0.55 0.35 0.82 1.81 | 0.89 | 0 of 18 |
| 29 | S25L K36E H98K L100Y | ND ND ND ND 4.09 3.18 | 3.63 | 0 of 18 |
| 30 | S25V S26P R34S H98W L100F | 1.53 ND 1.96 2.02 1.27 2.03 | 1.76 | 1 of 18 (2.57) |
| 31 | S26P R34Q H98W | 2.01 ND 2.68 2.04 1.76 1.44 | 1.99 | 2 of 18 (2.26) |
| 32 | Y31L T59R | ND ND ND ND ND 2.84 | 2.84 | 1 of 18 (1.82) |
| 33 | Y31A W56F A57G | 2.18 1.16 1.41 1.25 1.44 1.50 | 1.49 | 2 of 18 (2.99) |
| 34 | S26I A57V E61V | ND ND ND ND 2.86 ND | 2.86 | 0 of 18 |
| 35 | Q27H Y31N K36A A57G Q96T R99C | 2.08 2.24 ND 2.90 3.47 ND | 2.67 | 2 of 18 (2.17) |
| 36 | Y31K S33D R34E K36V E61P | 4.42 1.97 1.78 1.19 0.98 1.43 | 1.96 | 2 of 18 (2.33) |
| 37 | K36P W56E | -0.24 -0.44 -0.63 -0.58 -0.48 -0.33 | -0.45 | 1 of 18 (2.42) |
| 38 | R34E V39M E61V | 1.37 0.94 1.45 0.89 0.73 1.32 | 1.12 | 3 of 18 (1.84) |
| 39 | S26P E32Q S33T N37H W56H S62N | 0.99 0.73 0.79 0.73 1.12 1.31 | 0.95 | 1 of 18 (1.34) |
| 40 | K36A T59N Y97F H98W | ND ND ND ND ND ND | ND | 0 of 18 |
| 41 | Q27K W56Y | ND ND ND ND ND 2.52 | 2.52 | 0 of 18 |
| 42 | S25F W56H E61S H98M L102F | 0.34 0.24 0.13 0.36 0.12 0.26 | 0.24 | 0 of 18 |
| 43 | L30E Y31E W56S S103F | 0.66 0.45 0.46 0.46 0.42 0.64 | 0.52 | 0 of 18 |
| 44 | S25I K36E W56F | 0.87 0.68 0.64 0.71 0.67 1.08 | 0.78 | 1 of 18 (2.60) |
| 45 | S33I N37G S38A W56R | ND ND ND 1.13 ND 2.44 | 1.78 | 0 of 18 |
| 46 | L30R S38N W56Y S103M | ND ND 2.36 3.29 2.88 3.01 | 2.89 | 0 of 18 |

From the list, the first 4 with no signal in any replicate:

| changes | log10 Kd (nM) by replicate | mean, log10 nM | empty controls |
|---|---|---|---|
| A57K E61F Y97A | ND ND ND ND ND ND | ND | 0 of 18 |
| E32Q V39H W56A | ND ND ND ND ND ND | ND | 0 of 18 |
| S28Y E32P S33Q | ND ND ND ND ND ND | ND | 0 of 18 |
| K36A T59N Y97F H98W | ND ND ND ND ND ND | ND | 0 of 18 |